Values quoted from earlier work in patent US8323615B2, “Methods of processing multi-phasic dispersions” (Baxter International Inc., priority 2008, dated 2012).

How the values were obtained:
rats = settings: oral, all at once (acute toxicity), minimal amount reported in the literature
[1] = parts per million by weight; ambient temperature such as 20-25° C.

FC(F)(F)c1ccccc1 [1,1,1-trifluorotoluene]
LD50 (rats): 15 g/kg body weight

CC(F)(Cl)Cl [Genesolv ® 2000 HFC-141b]
Sol. (solubility of water in the liquid) [1]: 420 ppm
